Laboratory results as given in patent EP4837913A2, “SMALL MOLECULE INHIBITOR OF CATHEPSIN C AND MEDICINAL USE THEREOF” (dated 2026).

What was measured:
rhCatC = assay: In vitro enzyme activity experiment of rhCatC (AMC fluorescence assay, substrate H-Gly-Arg-AMC); details: read-out: Biological activity IC50, 30 min pre-incubation
CatC = assay: In vitro CatC cell activity experiment in the U937 cell line; details: read-out: Biological activity IC50, U937 cells, 1 hour compound incubation
[1] = Pharmacokinetic experiment in beagle dogs
[2] = Pharmacokinetic experiment in BALB/c mice; details: PO, 5 mg/kg

Compound	IC50 (rhCatC) [nM]	IC50 (CatC) [nM]	clearance rate decreased, compared with AZD7986 ([1]; IV 1 mg/kg)	Cmax ([1]; PO, 2 mg/kg) [ng/mL]	Cmax [2] [ng/mL]
N#CC(Cc1ccc2c(c1)COc1cc(F)ccc1-2)NC(=O)C1(N)CCOCC1 (stereo not drawn)	14.5	8.3	–	–	–
N#Cc1ccc2c(c1)COc1cc(C[C@@H](C#N)NC(=O)[C@@H]3CNCCCO3)c(F)cc1-2	–	–	about 3 times	577	1340
(S)-1-Amino-N-(1-cyano-2-(2-(4-fluorophenyl)-3-oxo-1,2,3,4-tetrahydroisoquinolin-6-yl)ethyl)cyclohexane-1-carboxamide	17	–	–	–	–
